Measured values from publication PMC10592010.

By UniProt entry, the sequences of proteins in these tests, tags left out. Where a name states a change or a piece, a line headed by the entry shows the natural chain unless it says otherwise.
UniProt P10275: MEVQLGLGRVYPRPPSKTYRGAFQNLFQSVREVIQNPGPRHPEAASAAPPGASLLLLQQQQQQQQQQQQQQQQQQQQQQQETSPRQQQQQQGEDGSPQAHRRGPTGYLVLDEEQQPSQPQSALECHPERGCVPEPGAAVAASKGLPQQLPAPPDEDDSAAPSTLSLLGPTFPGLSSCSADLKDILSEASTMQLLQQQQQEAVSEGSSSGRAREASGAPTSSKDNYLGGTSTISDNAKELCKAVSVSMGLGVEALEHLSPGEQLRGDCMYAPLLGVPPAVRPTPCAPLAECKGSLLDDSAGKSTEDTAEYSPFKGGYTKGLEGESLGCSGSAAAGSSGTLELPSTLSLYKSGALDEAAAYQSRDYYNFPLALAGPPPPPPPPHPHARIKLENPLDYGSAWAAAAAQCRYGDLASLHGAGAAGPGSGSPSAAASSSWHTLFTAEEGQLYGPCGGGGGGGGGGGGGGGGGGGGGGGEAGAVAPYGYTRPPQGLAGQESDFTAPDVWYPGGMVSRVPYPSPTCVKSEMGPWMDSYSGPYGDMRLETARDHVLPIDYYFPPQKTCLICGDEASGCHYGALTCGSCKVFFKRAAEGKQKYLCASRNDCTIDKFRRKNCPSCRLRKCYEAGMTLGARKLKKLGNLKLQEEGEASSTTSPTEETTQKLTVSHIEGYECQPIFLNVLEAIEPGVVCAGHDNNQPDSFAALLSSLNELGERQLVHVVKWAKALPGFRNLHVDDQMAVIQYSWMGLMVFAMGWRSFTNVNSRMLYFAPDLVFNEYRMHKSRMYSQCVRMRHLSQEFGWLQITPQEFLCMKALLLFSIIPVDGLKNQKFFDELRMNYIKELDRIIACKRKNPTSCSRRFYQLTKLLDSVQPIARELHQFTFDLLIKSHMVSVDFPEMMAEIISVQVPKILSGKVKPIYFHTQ

Target: EGFP-tagged full-length AR wildtype (GFP-ARwt) (human) (UniProt P10275)
Assay: live-cell single-particle tracking

- residence time (RT): 6.4 s
Substance: Halo-tagged AR NTD wildtype with NLS (Halo-ARNTDwt-NLS) (from UniProt P10275-1 1-538) (domain or fragment)
